What follows are compounds tested against CRBN (Homo sapiens, UniProt Q96SW2) (assay: CRBN binding affinity by HTRF (CEREBLON BINDING kit)). Settings: CRBN binding, HTRF, compound at 0.5 µM.

The chains behind the UniProt entries cited, without tags or fusion partners.
UniProt Q96SW2, whole entry: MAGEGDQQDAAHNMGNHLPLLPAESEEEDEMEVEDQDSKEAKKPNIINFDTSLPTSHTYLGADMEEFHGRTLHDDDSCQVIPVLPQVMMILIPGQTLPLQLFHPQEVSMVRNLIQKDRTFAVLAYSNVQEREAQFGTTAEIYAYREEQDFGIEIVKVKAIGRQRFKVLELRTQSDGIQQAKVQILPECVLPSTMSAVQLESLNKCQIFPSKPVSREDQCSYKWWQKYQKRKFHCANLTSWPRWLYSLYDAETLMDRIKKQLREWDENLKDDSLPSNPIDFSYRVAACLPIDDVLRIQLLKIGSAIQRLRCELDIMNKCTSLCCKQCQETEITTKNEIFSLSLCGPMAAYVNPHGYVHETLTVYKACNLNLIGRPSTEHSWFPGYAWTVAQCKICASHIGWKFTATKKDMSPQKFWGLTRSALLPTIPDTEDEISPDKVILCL
UniProt P48729, whole entry: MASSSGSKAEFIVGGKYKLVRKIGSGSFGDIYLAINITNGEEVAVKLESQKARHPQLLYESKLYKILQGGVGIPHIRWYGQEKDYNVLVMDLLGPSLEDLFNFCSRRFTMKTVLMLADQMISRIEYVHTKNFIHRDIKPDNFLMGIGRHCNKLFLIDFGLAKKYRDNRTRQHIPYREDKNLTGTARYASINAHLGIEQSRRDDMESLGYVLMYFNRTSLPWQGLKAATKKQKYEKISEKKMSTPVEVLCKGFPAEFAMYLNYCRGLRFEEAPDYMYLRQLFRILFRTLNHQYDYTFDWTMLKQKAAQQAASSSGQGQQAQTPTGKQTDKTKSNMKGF
UniProt P15170, whole entry: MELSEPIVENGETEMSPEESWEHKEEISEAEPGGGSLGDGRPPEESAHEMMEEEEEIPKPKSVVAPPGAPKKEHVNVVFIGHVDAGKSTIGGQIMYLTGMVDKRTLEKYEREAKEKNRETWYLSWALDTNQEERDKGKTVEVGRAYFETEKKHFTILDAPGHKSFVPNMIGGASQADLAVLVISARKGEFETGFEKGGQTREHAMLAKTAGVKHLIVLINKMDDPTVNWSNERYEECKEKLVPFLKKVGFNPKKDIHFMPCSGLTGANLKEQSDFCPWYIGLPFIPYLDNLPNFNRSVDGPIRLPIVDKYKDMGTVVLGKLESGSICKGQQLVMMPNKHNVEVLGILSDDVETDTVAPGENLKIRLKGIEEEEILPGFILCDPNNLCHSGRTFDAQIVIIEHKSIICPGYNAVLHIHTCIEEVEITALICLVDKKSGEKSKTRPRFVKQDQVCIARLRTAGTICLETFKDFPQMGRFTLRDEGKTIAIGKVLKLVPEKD
UniProt Q13422, whole entry: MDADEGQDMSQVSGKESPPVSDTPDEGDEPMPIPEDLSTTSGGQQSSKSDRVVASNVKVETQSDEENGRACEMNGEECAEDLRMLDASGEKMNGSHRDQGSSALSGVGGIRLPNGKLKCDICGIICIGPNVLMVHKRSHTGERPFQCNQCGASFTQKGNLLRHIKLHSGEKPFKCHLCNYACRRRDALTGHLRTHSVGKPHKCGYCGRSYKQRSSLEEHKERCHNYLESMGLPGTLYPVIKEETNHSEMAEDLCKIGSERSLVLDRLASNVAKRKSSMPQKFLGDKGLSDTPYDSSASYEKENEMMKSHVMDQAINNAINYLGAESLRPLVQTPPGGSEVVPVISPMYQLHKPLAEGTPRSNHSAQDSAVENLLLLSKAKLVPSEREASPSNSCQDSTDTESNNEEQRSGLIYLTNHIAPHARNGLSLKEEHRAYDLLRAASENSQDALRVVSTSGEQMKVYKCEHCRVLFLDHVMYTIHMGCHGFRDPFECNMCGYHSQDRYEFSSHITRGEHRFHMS
UniProt Q9UKS7, whole entry: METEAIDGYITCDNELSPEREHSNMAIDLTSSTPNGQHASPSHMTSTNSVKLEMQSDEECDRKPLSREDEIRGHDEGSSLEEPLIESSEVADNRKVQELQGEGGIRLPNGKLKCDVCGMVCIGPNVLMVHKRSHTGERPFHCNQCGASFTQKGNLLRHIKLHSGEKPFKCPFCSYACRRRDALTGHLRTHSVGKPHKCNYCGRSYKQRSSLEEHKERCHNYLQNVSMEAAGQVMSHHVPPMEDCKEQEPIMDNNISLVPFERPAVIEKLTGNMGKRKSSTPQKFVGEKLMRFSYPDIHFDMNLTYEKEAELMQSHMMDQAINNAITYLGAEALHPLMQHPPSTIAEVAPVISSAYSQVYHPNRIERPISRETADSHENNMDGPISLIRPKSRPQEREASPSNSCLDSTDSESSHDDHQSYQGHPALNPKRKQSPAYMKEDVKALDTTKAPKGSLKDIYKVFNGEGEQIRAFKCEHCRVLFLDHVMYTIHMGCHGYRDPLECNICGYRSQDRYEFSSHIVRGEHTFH
UniProt Q9UKT9, whole entry: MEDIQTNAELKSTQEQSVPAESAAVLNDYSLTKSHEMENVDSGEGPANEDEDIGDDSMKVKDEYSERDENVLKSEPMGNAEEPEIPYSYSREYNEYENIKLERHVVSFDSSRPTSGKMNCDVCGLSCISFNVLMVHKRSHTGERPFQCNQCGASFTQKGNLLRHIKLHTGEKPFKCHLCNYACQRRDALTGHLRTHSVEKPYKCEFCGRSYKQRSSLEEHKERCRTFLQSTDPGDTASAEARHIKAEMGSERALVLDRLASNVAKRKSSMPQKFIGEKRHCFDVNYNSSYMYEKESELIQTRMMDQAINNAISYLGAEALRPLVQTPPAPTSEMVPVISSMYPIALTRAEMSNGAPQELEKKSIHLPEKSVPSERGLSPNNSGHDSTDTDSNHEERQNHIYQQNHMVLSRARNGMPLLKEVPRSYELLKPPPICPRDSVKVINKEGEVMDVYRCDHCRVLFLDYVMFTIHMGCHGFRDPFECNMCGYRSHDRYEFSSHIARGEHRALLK
UniProt P30291, whole entry: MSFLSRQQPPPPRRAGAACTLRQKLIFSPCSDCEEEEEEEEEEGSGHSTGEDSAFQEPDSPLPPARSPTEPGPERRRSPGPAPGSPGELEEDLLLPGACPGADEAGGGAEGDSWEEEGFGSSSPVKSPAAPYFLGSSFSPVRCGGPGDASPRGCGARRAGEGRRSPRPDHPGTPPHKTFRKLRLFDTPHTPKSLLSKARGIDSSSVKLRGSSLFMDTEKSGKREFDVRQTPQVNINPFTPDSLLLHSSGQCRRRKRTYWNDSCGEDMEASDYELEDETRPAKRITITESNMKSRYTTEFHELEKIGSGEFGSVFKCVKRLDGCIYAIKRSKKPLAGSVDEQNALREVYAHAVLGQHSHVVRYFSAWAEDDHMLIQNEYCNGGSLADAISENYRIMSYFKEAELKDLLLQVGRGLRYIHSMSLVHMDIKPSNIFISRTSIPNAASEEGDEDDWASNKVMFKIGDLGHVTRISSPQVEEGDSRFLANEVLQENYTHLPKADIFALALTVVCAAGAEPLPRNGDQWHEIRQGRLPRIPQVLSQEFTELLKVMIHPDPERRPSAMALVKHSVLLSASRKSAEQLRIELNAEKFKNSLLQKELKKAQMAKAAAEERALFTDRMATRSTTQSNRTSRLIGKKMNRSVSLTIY
UniProt Q16531, whole entry partner: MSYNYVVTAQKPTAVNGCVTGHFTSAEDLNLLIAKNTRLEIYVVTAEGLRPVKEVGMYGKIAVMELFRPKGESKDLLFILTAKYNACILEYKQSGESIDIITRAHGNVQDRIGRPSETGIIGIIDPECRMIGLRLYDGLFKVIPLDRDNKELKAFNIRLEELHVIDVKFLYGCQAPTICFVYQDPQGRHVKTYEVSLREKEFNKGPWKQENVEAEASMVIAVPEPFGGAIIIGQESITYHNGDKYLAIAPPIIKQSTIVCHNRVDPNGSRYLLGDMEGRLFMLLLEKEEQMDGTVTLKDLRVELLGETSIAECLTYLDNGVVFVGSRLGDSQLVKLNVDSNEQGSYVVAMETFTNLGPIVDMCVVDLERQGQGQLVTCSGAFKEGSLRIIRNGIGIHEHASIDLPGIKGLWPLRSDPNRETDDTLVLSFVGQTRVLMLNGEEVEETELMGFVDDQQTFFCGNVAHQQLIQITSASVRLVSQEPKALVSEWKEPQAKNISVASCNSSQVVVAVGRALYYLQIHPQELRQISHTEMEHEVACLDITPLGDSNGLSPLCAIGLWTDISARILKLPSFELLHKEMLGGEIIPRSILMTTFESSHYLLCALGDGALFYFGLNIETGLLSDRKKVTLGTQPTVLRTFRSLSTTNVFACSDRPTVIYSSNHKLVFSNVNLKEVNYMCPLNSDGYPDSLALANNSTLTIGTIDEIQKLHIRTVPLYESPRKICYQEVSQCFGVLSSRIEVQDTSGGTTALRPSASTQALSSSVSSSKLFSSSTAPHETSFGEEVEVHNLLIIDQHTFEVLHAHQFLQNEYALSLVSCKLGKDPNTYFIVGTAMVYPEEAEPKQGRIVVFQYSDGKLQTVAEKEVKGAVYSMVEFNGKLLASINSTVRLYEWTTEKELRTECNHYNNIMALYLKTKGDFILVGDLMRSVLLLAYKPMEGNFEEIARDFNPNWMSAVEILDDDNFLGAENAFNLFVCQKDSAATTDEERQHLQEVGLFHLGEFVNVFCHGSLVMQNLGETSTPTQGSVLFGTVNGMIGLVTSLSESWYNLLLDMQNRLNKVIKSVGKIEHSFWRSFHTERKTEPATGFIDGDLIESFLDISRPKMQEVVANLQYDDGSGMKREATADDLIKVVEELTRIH

Row | Compound | Inhibition Rate at 0.5 µM (%)
1 | O=C1CCC(N2Cc3c(CN4CCC(N5CCN(c6cccc(Cl)c6Cl)CC5)C(F)(F)C4)cccc3C2=S)C(=O)N1 (stereo not shown) | a6 (60% < a6 ≤ 70%)
2 | CC1(C)CCC(C(=O)N2CCN(C3CCN(Cc4ccc5c(c4)C(=S)N(C4CCC(=O)NC4=O)C5)CC3(F)F)CC2)=C(c2ccc(Cl)cc2)C1 (stereo not shown) | a4 (40% < a4 ≤ 53%)
3 | O=C1CCC(N2Cc3c(CN4CCC(N5CCN(C(c6ccccc6)c6ccccc6)CC5)C(F)(F)C4)cccc3C2=S)C(=O)N1 (stereo not shown) | a4 (40% < a4 ≤ 53%)
4 | O=C1CCC(N2Cc3cc(C(=O)N4CCC(N5CCN(C(c6ccccc6)c6ccccn6)CC5)C(F)(F)C4)c(F)cc3C2=O)C(=O)N1 (stereo not shown) | a3 (30% < a3 ≤ 40%)
5 | O=C1CCC(N2Cc3c(CN4CCC(N5CCC(c6noc7cc(F)ccc67)CC5)C(F)(F)C4)cccc3C2=S)C(=O)N1 (stereo not shown) | a5 (53% < a5 ≤ 60%)

Same assay, conditions: CRBN binding, HTRF, compound at 2 µM

Row | Compound | Inhibition Rate at 2 µM (%)
6 | O=C1CCC(N2Cc3c(CN4CCC(N5CCN(c6cccc(Cl)c6Cl)CC5)C(F)(F)C4)cccc3C2=S)C(=O)N1 (stereo not shown) | a8 (80% < a8 ≤100%)
7 | CC1(C)CCC(C(=O)N2CCN(C3CCN(Cc4ccc5c(c4)C(=S)N(C4CCC(=O)NC4=O)C5)CC3(F)F)CC2)=C(c2ccc(Cl)cc2)C1 (stereo not shown) | a8 (80% < a8 ≤100%)
8 | O=C1CCC(N2Cc3c(CN4CCC(N5CCN(C(c6ccccc6)c6ccccc6)CC5)C(F)(F)C4)cccc3C2=S)C(=O)N1 (stereo not shown) | a6 (60% < a6 ≤ 70%)
9 | O=C1CCC(N2Cc3cc(C(=O)N4CCC(N5CCN(C(c6ccccc6)c6ccccn6)CC5)C(F)(F)C4)c(F)cc3C2=O)C(=O)N1 (stereo not shown) | a6 (60% < a6 ≤ 70%)
10 | O=C1CCC(N2Cc3c(CN4CCC(N5CCC(c6noc7cc(F)ccc67)CC5)C(F)(F)C4)cccc3C2=S)C(=O)N1 (stereo not shown) | a8 (80% < a8 ≤100%)

Same assay, conditions: read-out: HTRF IC50; human Cereblon WT GST-tagged protein; 3 hours at room temperature

Row | Compound | IC50
11 | O=C1CCC(N2Cc3ccc(CN4CCC(N5CCN(C(c6ccccc6)c6ccccn6)CC5)C(F)(F)C4)cc3C2=S)C(=O)N1 (stereo not shown) | 1000 to 1500 nM
12 | O=C1CCC(N2Cc3c(CN4CCC(N5CCN(C(c6ccccc6)c6ccccc6)CC5)CC4)cccc3C2=O)C(=O)N1 (stereo not shown) | 1500 to 1900 nM
13 | CC1(C)CCC(C(=O)N2CCN(C3CCN(Cc4ccc5c(c4)CN(N4CCC(=O)NC4=O)C5=O)CC3(F)F)CC2)=C(c2ccc(Cl)cc2)C1 (stereo not shown) | 1500 to 1900 nM

These compounds were tested against CK1α (Homo sapiens, UniProt P48729+Q96SW2) (assay: Western blot assay of substrate protein degradation in hPBMCs). Settings: 24 hours treatment, compounds at 50 nM and 500 nM (concentration behind the class not stated).

Row | Compound | substrate protein remaining % (CK1a)
14 | O=C1CCC(N2Cc3ccc(CN4CCC(N5CCN(c6noc7cc(F)ccc67)CC5)C(F)(F)C4)cc3C2=O)C(=O)N1 (stereo not shown) | B (80%< substrate protein remaining %≤ 100%)
15 | CC1(C)CCC(CN2CCN(C3CCN(C(=O)c4ccc5c(c4)C(=O)N(C4CCC(=O)NC4=O)C5=O)CC3(F)F)CC2)=C(c2ccc(Cl)cc2)C1 (stereo not shown) | B (80%< substrate protein remaining %≤ 100%)
16 | O=C1CCC(N2C(=O)c3ccc(C(=O)N4CCC(N5CCN(C(c6ccccc6)c6ccccc6)CC5)CC4)cc3C2=O)C(=O)N1 (stereo not shown) | A (0% ≤ substrate protein remaining % ≤ 80%)
17 | O=C1CCC(N2Cc3c(CN4CCC(N5CCN(c6cccc(Cl)c6Cl)CC5)C(F)(F)C4)cccc3C2=O)C(=O)N1 (stereo not shown) | B (80%< substrate protein remaining %≤ 100%)
18 | O=C1CCN(N2Cc3cc(CN4CCC(N5CCN(C(c6ccccc6)c6ccccc6)CC5)C(F)(F)C4)ccc3C2=O)C(=O)N1 (stereo not shown) | B (80%< substrate protein remaining %≤ 100%)

Each compound was assayed against GSPT1 (Homo sapiens, UniProt P15170+Q96SW2) in the same assay as above. Settings: 24 hours treatment, compounds at 50 nM and 500 nM (concentration behind the class not stated).

Row | Compound | substrate protein remaining % (GSPT1)
19 | O=C1CCC(N2Cc3ccc(CN4CCC(N5CCN(c6noc7cc(F)ccc67)CC5)C(F)(F)C4)cc3C2=O)C(=O)N1 (stereo not shown) | A (0% ≤ substrate protein remaining % ≤ 80%)
20 | CC1(C)CCC(CN2CCN(C3CCN(C(=O)c4ccc5c(c4)C(=O)N(C4CCC(=O)NC4=O)C5=O)CC3(F)F)CC2)=C(c2ccc(Cl)cc2)C1 (stereo not shown) | B (80%< substrate protein remaining %≤ 100%)
21 | O=C1CCC(N2C(=O)c3ccc(C(=O)N4CCC(N5CCN(C(c6ccccc6)c6ccccc6)CC5)CC4)cc3C2=O)C(=O)N1 (stereo not shown) | A (0% ≤ substrate protein remaining % ≤ 80%)
22 | O=C1CCC(N2Cc3c(CN4CCC(N5CCN(c6cccc(Cl)c6Cl)CC5)C(F)(F)C4)cccc3C2=O)C(=O)N1 (stereo not shown) | A (0% ≤ substrate protein remaining % ≤ 80%)
23 | O=C1CCN(N2Cc3cc(CN4CCC(N5CCN(C(c6ccccc6)c6ccccc6)CC5)C(F)(F)C4)ccc3C2=O)C(=O)N1 (stereo not shown) | A (0% ≤ substrate protein remaining % ≤ 80%)

The compounds below were run against IKZF1 (Homo sapiens, UniProt Q13422+Q96SW2) in the same assay as above. Settings: 24 hours treatment, compounds at 50 nM and 500 nM (concentration behind the class not stated).

Row | Compound | substrate protein remaining % (IKZF 1)
24 | O=C1CCC(N2Cc3ccc(CN4CCC(N5CCN(c6noc7cc(F)ccc67)CC5)C(F)(F)C4)cc3C2=O)C(=O)N1 (stereo not shown) | B (80%< substrate protein remaining %≤ 100%)
25 | CC1(C)CCC(CN2CCN(C3CCN(C(=O)c4ccc5c(c4)C(=O)N(C4CCC(=O)NC4=O)C5=O)CC3(F)F)CC2)=C(c2ccc(Cl)cc2)C1 (stereo not shown) | B (80%< substrate protein remaining %≤ 100%)
26 | O=C1CCC(N2C(=O)c3ccc(C(=O)N4CCC(N5CCN(C(c6ccccc6)c6ccccc6)CC5)CC4)cc3C2=O)C(=O)N1 (stereo not shown) | A (0% ≤ substrate protein remaining % ≤ 80%)
27 | O=C1CCC(N2Cc3c(CN4CCC(N5CCN(c6cccc(Cl)c6Cl)CC5)C(F)(F)C4)cccc3C2=O)C(=O)N1 (stereo not shown) | B (80%< substrate protein remaining %≤ 100%)
28 | O=C1CCN(N2Cc3cc(CN4CCC(N5CCN(C(c6ccccc6)c6ccccc6)CC5)C(F)(F)C4)ccc3C2=O)C(=O)N1 (stereo not shown) | B (80%< substrate protein remaining %≤ 100%)

These compounds were tested against IKZF2 (Homo sapiens, UniProt Q96SW2+Q9UKS7) in the same assay as above. Settings: 24 hours treatment, compounds at 50 nM and 500 nM (concentration behind the class not stated).

Row | Compound | substrate protein remaining % (IKZF2)
29 | O=C1CCC(N2Cc3ccc(CN4CCC(N5CCN(c6noc7cc(F)ccc67)CC5)C(F)(F)C4)cc3C2=O)C(=O)N1 (stereo not shown) | B (80%< substrate protein remaining %≤ 100%)
30 | CC1(C)CCC(CN2CCN(C3CCN(C(=O)c4ccc5c(c4)C(=O)N(C4CCC(=O)NC4=O)C5=O)CC3(F)F)CC2)=C(c2ccc(Cl)cc2)C1 (stereo not shown) | A (0% ≤ substrate protein remaining % ≤ 80%)
31 | O=C1CCC(N2C(=O)c3ccc(C(=O)N4CCC(N5CCN(C(c6ccccc6)c6ccccc6)CC5)CC4)cc3C2=O)C(=O)N1 (stereo not shown) | A (0% ≤ substrate protein remaining % ≤ 80%)
32 | O=C1CCC(N2Cc3c(CN4CCC(N5CCN(c6cccc(Cl)c6Cl)CC5)C(F)(F)C4)cccc3C2=O)C(=O)N1 (stereo not shown) | B (80%< substrate protein remaining %≤ 100%)
33 | O=C1CCN(N2Cc3cc(CN4CCC(N5CCN(C(c6ccccc6)c6ccccc6)CC5)C(F)(F)C4)ccc3C2=O)C(=O)N1 (stereo not shown) | B (80%< substrate protein remaining %≤ 100%)

These compounds were tested against IKZF3 (Homo sapiens, UniProt Q96SW2+Q9UKT9) in the same assay as above. Settings: 24 hours treatment, compounds at 50 nM and 500 nM (concentration behind the class not stated).

Row | Compound | substrate protein remaining % (IKZF3)
34 | O=C1CCC(N2Cc3ccc(CN4CCC(N5CCN(c6noc7cc(F)ccc67)CC5)C(F)(F)C4)cc3C2=O)C(=O)N1 (stereo not shown) | B (80%< substrate protein remaining %≤ 100%)
35 | CC1(C)CCC(CN2CCN(C3CCN(C(=O)c4ccc5c(c4)C(=O)N(C4CCC(=O)NC4=O)C5=O)CC3(F)F)CC2)=C(c2ccc(Cl)cc2)C1 (stereo not shown) | A (0% ≤ substrate protein remaining % ≤ 80%)
36 | O=C1CCC(N2C(=O)c3ccc(C(=O)N4CCC(N5CCN(C(c6ccccc6)c6ccccc6)CC5)CC4)cc3C2=O)C(=O)N1 (stereo not shown) | B (80%< substrate protein remaining %≤ 100%)
37 | O=C1CCC(N2Cc3c(CN4CCC(N5CCN(c6cccc(Cl)c6Cl)CC5)C(F)(F)C4)cccc3C2=O)C(=O)N1 (stereo not shown) | A (0% ≤ substrate protein remaining % ≤ 80%)
38 | O=C1CCN(N2Cc3cc(CN4CCC(N5CCN(C(c6ccccc6)c6ccccc6)CC5)C(F)(F)C4)ccc3C2=O)C(=O)N1 (stereo not shown) | B (80%< substrate protein remaining %≤ 100%)

The compounds below were run against WEE1 (Homo sapiens, UniProt P30291+Q96SW2) in the same assay as above. Settings: 24 hours treatment, compounds at 50 nM and 500 nM (concentration behind the class not stated).

Row | Compound | substrate protein remaining % (WEE1)
39 | O=C1CCC(N2Cc3ccc(CN4CCC(N5CCN(c6noc7cc(F)ccc67)CC5)C(F)(F)C4)cc3C2=O)C(=O)N1 (stereo not shown) | B (80%< substrate protein remaining %≤ 100%)
40 | CC1(C)CCC(CN2CCN(C3CCN(C(=O)c4ccc5c(c4)C(=O)N(C4CCC(=O)NC4=O)C5=O)CC3(F)F)CC2)=C(c2ccc(Cl)cc2)C1 (stereo not shown) | B (80%< substrate protein remaining %≤ 100%)
41 | O=C1CCC(N2C(=O)c3ccc(C(=O)N4CCC(N5CCN(C(c6ccccc6)c6ccccc6)CC5)CC4)cc3C2=O)C(=O)N1 (stereo not shown) | A (0% ≤ substrate protein remaining % ≤ 80%)
42 | O=C1CCC(N2Cc3c(CN4CCC(N5CCN(c6cccc(Cl)c6Cl)CC5)C(F)(F)C4)cccc3C2=O)C(=O)N1 (stereo not shown) | B (80%< substrate protein remaining %≤ 100%)
43 | O=C1CCN(N2Cc3cc(CN4CCC(N5CCN(C(c6ccccc6)c6ccccc6)CC5)C(F)(F)C4)ccc3C2=O)C(=O)N1 (stereo not shown) | B (80%< substrate protein remaining %≤ 100%)

Source: patent EP4834897A1, “COMPOUNDS WITH TWO AZAHETEROCYCLES SUBSTITUTED ISOINDOLINONE SKELETON AND USES THEREOF” (dated 2026)
